Source: paper PMC3814989, “Development of a Fluorescence Polarization Based High-Throughput Assay to Identify Casitas B-Lineage Lymphoma RING Domain Regulators” (PLoS ONE, 2013)
“And” between values parts separate entries of the source, which are not always exact repeats. Equal entries are not always repeated. Where two headings read alike, the source gives them in different places.

Biological target: T1, c-Cbl (RING) protein (Homo sapiens, UniProt P22681)
T1 construct: c-Cbl (RING) protein including the linker and RING domain (codon 358–457) was tagged with glutathione S-transferase (GST); GST; made in house
T1 sequence (P22681 358-457): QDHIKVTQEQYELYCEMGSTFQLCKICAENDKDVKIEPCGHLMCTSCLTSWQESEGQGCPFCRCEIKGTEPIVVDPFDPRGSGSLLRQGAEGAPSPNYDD
Test: Competitive FP assay/screen: displacement of probe 1 from c-Cbl (RING) protein
Format: binding
Protocol: Assays were carried out in detergent-free buffer system (PBS, pH = 7.4) or detergent-present buffer system (0.01% Triton X-100 in PBS, pH = 7.4). All FP measurements were made on 384-well, low-volume, black, v-bottom polystyrene microplates (Corning, Shanghai, China) using the ZS-2 plate reader. The binding affinities of fluorescein-labeled peptides/regulators binding to c-Cbl (RING) protein were verified by titrating an increasing concentration of protein into a constant concentration of labeled peptides. The polarization values were measured at an excitation wavelength of 485 nm and an emission wavelength of 538 nm. The total fluorescence (TF) values were also measured. The change in polarization was graphed as a function of the log of the protein concentration, and the dissociation constant (Kd) and the change in mP (ΔmP) were obtained from the resulting sigmoidal curve. The concentrations of fluorescein-labeled peptide and proteins were optimized.
Unlabeled short peptide was titrated against the FITC-labeled peptide (100 nmol/L) and protein (3 µmol/L) mixture. Plates were incubated at room temperature for up to 3 hours or 30 min at different temperatures. FP values were taken and IC50 values, concentrations giving 50% inhibition of protein-protein interaction with respect to control, and dissociation constant (Kd) values were calculated.
Master mixtures containing fluorescein-labeled probe and Cbl (RING) protein Cbl (RING) protein, 3 µmol/L and probe 1 at 100 nmol/L) in a reaction volume of 19 µl were prepared and loaded to plates. The library compounds (10 µmol/L – 0.078 µmol/L, half dilutions) were prepared separately and transferred into the assay plates. The first and last columns of each plate were used as positive and negative control wells. Wells containing the drug only were used as controls to detect auto-fluorescence of the compounds in the total fluorescence assay. After subtraction of the background signal, data was processed and the IC50 values were determined by non-linear least square fitting (four parameters) using SigmaPlot 11.0.
Hits were validated using the primary screening assay conditions in triplicate.

[1] = IC50 Primary screen DF, primary screen, detergent-free system, 10 to 0.078 µmol/L, 5% DMSO
[2] = IC50 Primary screen DP, primary screen, detergent-present system (0.01% Triton X-100), 10 to 0.078 µmol/L, 5% DMSO
[3] = IC50 Validated DF, validated in triplicate, detergent-free system

OC[C@H]1O[C@@H](O[C@@H]2OC=C[C@H]3[C@H](O)[C@@H]4O[C@]4(CO)[C@@H]23)[C@H](O)[C@@H](O)[C@@H]1O [Catalpol]
IC50 [1]: < 5 µM and 2.9 µM | IC50 [2]: 2.3 µM | IC50 [3]: 2.7 ± 0.6 µM | IC50 (IC50 Validated DP, validated in triplicate, detergent-present system (0.01% Triton X-100), NR: no dose response): 3.2 ± 0.9 µM

O=c1c(O)c(-c2ccc(O)c(O)c2)oc2cc(O)cc(O)c12 [Quercetin]
IC50 [1]: < 5 µM and 4.2 µM | IC50 [2]: > 10 µM | IC50 [3]: 4 ± 0.6 µM | IC50 (read-out: IC50 Validated DP, validated in triplicate, detergent-present system (0.01% Triton X-100), NR: no dose response): > 10 µM
